# Assay results published in ChEMBL document CHEMBL2417457, “Octahydropyrrolo[3,4-c]pyrrole negative allosteric modulators of mGlu1” (Bioorg Med Chem Lett, 2013).
# What was measured:
# [1] = target: T1, Metabotropic glutamate receptor 1 (Homo sapiens, UniProt Q13255); assay: Negative allosteric modulation of human mGlu1 receptor expressed in HEK293A TREx cells assessed as calcium flux at 30 uM after 45 mins relative to glutamate; format: functional, cell-based; details: HEK293-A
# In short: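 Tetracycline-induced HEK293A TREx cells expressing human mGlu1 were loaded with Fluo-4 for Ca2+ flux. Test compound was given at 30 μM. Response amplitude is expressed as a percentage of the maximal response to 100 μM glutamate, averaged over n ≥ 3.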
# [2] = target: T1, Metabotropic glutamate receptor 1; assay: Negative allosteric modulation of human mGlu1 receptor expressed in HEK293A TREx cells assessed as calcium flux after 45 mins; format: functional, cell-based, HEK293-A
# In short: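 HEK293A TREx cells stably expressing human mGlu1 were induced overnight with 50 ng/mL tetracycline at 37 °C. Ten-point 1:3 compound series were added for 2.3 min, then an EC20 of glutamate, then an EC80 of glutamate 1.9 min later. Ca2+ flux was read for 1.7 min. Values are the average of n ≥ 3.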
# [3] = target: T1, Metabotropic glutamate receptor 1; assay: Negative allosteric modulation of human mGlu1 receptor up to 30 uM
Compound,%max [1] [%],IC50 [2] [µM],Activity [3]
N#Cc1cccnc1N1C[C@H]2CN(C(=O)C34CC5CC(CC(C5)C3)C4)C[C@H]2C1,–,5.59,–
O=C(CC12CC3CC(CC(C3)C1)C2)N1C[C@@H]2CN(c3ccccn3)C[C@@H]2C1,–,1.43,–
CC(C)(C)C(=O)N1C[C@@H]2CN(c3ccccn3)C[C@@H]2C1,–,–,inactive

# Other lines, results leading:
%max [1] [%],IC50 [2] [µM],Activity [3],Compound
14.9,> 10,–,O=C(C1CCCCCCC1)N1C[C@@H]2CN(c3ccccn3)C[C@@H]2C1
–,5.16,–,O=C(N1CC2CCC(C2)C1)N1C[C@@H]2CN(c3ccccn3)C[C@@H]2C1

# Activity calls are given as the source filed them. The calls are words filed in the database; no cut-off is given here.
